Data as given in PMC7284125, “Identification of annotated bioactive molecules that impair motility of the blood fluke Schistosoma mansoni” (International Journal for Parasitology: Drugs and Drug …, 2020).

Chains of the proteins cited; added tags and fusions are not shown.
UniProt G4V5G4, entry or part of it: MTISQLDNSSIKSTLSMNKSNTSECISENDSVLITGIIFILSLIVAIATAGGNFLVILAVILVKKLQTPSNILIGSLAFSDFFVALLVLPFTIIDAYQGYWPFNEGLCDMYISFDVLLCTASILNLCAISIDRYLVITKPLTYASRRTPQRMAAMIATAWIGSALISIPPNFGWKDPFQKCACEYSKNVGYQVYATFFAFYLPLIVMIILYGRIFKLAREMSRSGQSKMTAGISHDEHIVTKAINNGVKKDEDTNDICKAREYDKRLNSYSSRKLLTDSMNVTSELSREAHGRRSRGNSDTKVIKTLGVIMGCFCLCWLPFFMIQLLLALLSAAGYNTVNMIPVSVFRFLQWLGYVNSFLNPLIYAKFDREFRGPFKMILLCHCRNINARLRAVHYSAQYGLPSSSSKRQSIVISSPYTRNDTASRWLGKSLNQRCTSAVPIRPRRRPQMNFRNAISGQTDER
UniProt G4LUJ1, entry or part of it: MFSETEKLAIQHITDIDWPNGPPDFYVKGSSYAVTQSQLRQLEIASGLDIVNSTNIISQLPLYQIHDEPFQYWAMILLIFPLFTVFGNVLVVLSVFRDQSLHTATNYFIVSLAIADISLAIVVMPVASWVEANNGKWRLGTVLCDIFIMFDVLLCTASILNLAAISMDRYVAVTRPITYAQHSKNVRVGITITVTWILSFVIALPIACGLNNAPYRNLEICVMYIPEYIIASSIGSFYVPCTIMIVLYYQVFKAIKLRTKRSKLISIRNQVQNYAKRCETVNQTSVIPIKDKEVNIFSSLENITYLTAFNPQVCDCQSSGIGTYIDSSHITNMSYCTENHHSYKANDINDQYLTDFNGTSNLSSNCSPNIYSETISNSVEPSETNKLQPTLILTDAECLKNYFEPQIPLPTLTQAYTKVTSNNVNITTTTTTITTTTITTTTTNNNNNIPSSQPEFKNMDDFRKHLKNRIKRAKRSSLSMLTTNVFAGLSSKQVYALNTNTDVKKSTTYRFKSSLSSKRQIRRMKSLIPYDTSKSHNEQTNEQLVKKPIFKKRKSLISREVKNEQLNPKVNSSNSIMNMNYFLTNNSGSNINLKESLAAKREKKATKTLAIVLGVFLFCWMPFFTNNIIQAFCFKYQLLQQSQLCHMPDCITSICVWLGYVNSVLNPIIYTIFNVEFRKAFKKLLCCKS

Columns and labels:
[1] = target: Sm5HTR (Schistosoma mansoni, UniProt G4V5G4); assay: cAMP luminescence (GloSensor) assay, HEK293 cells expressing Sm5HTR; assay type: cell-based, S. mansoni; conditions: luminescent cAMP signal, agonist
[2] = target: SmD2 (Schistosoma mansoni, UniProt G4LUJ1); assay: cell-based; conditions: HEK293, read-out: inhibition of EPN-evoked luminescence

Compound	EC50 [1] [nM]	inhibition at 10 µM [2] [%]
NCCc1c[nH]c2ccc(O)cc12 [5-HT, serotonin]	1460 ± 130	
O=C1CCc2ccc(OCCCCN3CCN(c4cccc(Cl)c4Cl)CC3)cc2N1 [Aripiprazole]		≥ 50
